Data taken from PubChem BioAssay AID504692 (The Scripps Research Institute Molecular Screening Center, 2011).
Only a part is listed here, and it is no random draw. Active and inactive are the calls of the source. No stated cut-off is given here; in the data, active means activation mostly above about 9.5% (no sharp cut-off); inactive means mostly below about 7.6%.

Amino acid sequences for entries named in this document (tags omitted).
UniProt P47898, whole entry, looked up: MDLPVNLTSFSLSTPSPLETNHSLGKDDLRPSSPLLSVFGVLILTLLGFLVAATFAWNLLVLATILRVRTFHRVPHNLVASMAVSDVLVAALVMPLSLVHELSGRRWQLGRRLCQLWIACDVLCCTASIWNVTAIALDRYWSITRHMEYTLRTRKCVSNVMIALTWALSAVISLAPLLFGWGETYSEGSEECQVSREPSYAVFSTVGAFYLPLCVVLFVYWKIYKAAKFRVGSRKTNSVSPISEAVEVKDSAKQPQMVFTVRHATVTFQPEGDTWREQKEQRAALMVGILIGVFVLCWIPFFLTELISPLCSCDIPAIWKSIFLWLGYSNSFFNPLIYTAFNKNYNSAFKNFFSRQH

What follows are compounds tested against 5-hydroxytryptamine receptor 5A (Homo sapiens) (UniProt P47898) (assay: HTR5A agonists in luminescence cell assay, primary screen, counter-screen for OPRM1-OPRD1 heterodimer agonist project, full-deck HTS (AID 504692;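 further: 0% = cells with vehicle only and 100% = reference agonist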)). Details: cell-based, at 9.3 µM, stronger effect = higher value.

Row | Compound | activation
1 | O=C(/C=C/c1ccccc1)OC1CN2CCC1CC2 (stereo not drawn) | inactive: 1.64%
2 | COc1cccc(NC(=O)Cn2c(SCC(=O)N3CCOCC3)nc3ccccc32)c1 | inactive: 1.74%
3 | CC1CC(C)CN(Cc2nc3c(c(=O)n(C)c(=O)n3C)n2CCN2CCOCC2)C1 (stereo not drawn) | inactive: 5.73%
4 | COc1ccc(CN(C)C(=O)Cn2cnc3c(SC)nc(N)nc32)cc1OC | inactive: -2.57%
5 | O=S(=O)(c1ccc(Cl)c(Cl)c1)N1CCc2nc3ccccc3n2CC1 | inactive: 2.57%
6 | Cn1c(=O)c2c(ncn2CC(=O)N/N=C/C=C/c2ccccc2)n(C)c1=O | inactive: 0.96%
7 | CCCC1OP(=O)(Nc2ccccc2)OCC1CC (stereo not drawn) | inactive: -0.53%
8 | O=S(=O)(Nc1ccc2c(c1)nc1n2CCN(Cc2ccccc2)C1)c1ccccc1 | inactive: 7.35%
9 | O=S(=O)(c1ccc(Br)cc1)N1CCn2c(nc3ccccc32)C1 | inactive: 4.15%
10 | CCN1C(=O)CC(N2CCC(Nc3ccc(OC)cc3)CC2)C1=O (stereo not drawn) | inactive: -2.47%
11 | CC(=O)Nc1ccc(NC(=O)C2CC(=O)Nc3nc4ccccc4n32)cc1 (stereo not drawn) | inactive: -2.05%
12 | Cn1c(=O)c2ncn(CC(=O)NCCOc3ccc(C(C)(C)C)cc3)c2n(C)c1=O | inactive: 1.88%
13 | O=C(CSc1nc2ccccc2n1CC(=O)NCc1ccccc1)NCc1ccco1 | inactive: -1.14%
14 | COc1ccc(Cl)cc1NC(=O)Cn1c(NCCO)nc2ccccc21 | inactive: 5.06%
15 | O=C(Cn1cnc2c(OCc3ccccc3)ncnc21)N[C@H](CO)Cc1cc2ccccc2[nH]1 | inactive: -0.19%
16 | CC(=O)NC(SC(=S)N(C)C)C(Cl)(Cl)Cl (stereo not drawn) | inactive: 1.71%
17 | O=[N+]([O-])c1ncn(CCn2cnc([N+](=O)[O-])n2)n1 | inactive: -4.86%
18 | O=[N+]([O-])c1ccc(O)c(/C=N/Nc2ccc([N+](=O)[O-])cc2[N+](=O)[O-])c1 | inactive: 2.55%
19 | CCOC(=O)C1=C(Cn2cnc3ccccc32)NC(=O)NC1c1cc(C)ccc1C (stereo not drawn) | inactive: 5.67%
20 | O=C(Cn1cnc2c(OCc3ccccc3)ncnc21)NCc1ccc2[nH]ccc2c1 | inactive: 6.29%

Row | Compound | activation
21 | CCn1nccc1C(=O)Nc1nc2ccccc2n1CCN1CCCCC1 | inactive: 3.64%
22 | N=c1n(CCN2CCOCC2)c2ccccc2n1CC(=O)c1ccc(Cl)c(Cl)c1 | inactive: -1.19%
23 | Cc1nc2cc(C(F)(F)F)ccc2n1C1CCN(Cc2nnnn2Cc2cccs2)CC1 | inactive: -2.09%
24 | O=C(Cn1c(=O)n(CC2CS2)c2ccccc21)N1CCCCC1 (stereo not drawn) | inactive: 0.15%
25 | CS(=O)(=O)Cc1nc2ccccc2n1CC(=O)Nc1cccc(S(=O)(=O)N2CCCC2)c1 | inactive: 1.98%
26 | CCOc1ccc(NC(=O)N2CCC(n3c(=O)[nH]c4ccccc43)CC2)cc1 | inactive: 8.1%
27 | COCC(C)NC(=O)Cn1c(SCc2ccccc2)nc2ccccc21 (stereo not drawn) | inactive: 1.61%
28 | O=[As](O)(c1ccccc1)c1ccc(O)cc1 | inactive: 3.5%
29 | CC1CCCC(NC(=O)Cn2c(Cl)nc3c2c(=O)n(C)c(=O)n3C)C1C (stereo not drawn) | inactive: 4.17%
30 | O=C(Cn1cnc2c(NCc3ccccc3)ncnc21)NCc1ccccc1 | inactive: -2.05%
31 | Cc1nc2ccc(S(=O)(=O)NC(C(=O)N3CCn4c3nc3ccccc34)C(C)C)cc2s1 (stereo not drawn) | inactive: 0.46%
32 | CCN(CC)CCn1c(NC(=O)c2ccccc2O)nc2ccccc21 | inactive: 2.43%
33 | CN(C)C(=O)Cn1c(SCC(=O)NC2CCCCC2)nc2ccccc21 | inactive: 1.17%
34 | CC(=O)Nc1ccc2c(c1)nc1n2CCN(C(C)c2ccccc2)C1 (stereo not drawn) | inactive: -0.2%
35 | O=C(Nc1ccccc1Cl)N1CCn2c(nc3ccccc32)C1 | inactive: 2.62%
36 | C(Cc1nn[nH]n1)Cc1nn[nH]n1 | inactive: -0.65%
37 | Cn1c(=O)[nH]c(=O)c2c1nc(CN(Cc1ccccc1)Cc1ccccc1)n2CCN1CCOCC1 | inactive: 2.5%
38 | COc1ccc(CCNC(=O)Cn2cnc3c2c(=O)n(C)c(=O)n3C)cc1OC | inactive: 6%
39 | COc1ccc(C(=O)N2CCn3c2nc2ccccc23)cc1 | inactive: 8.8%
40 | N=c1n(CCO)c2ccccc2n1CCN1CCCCC1 | inactive: -2.58%

Row | Compound | activation
41 | Nc1ccc([As](=O)(O)c2ccc([N+](=O)[O-])cc2)cc1 | inactive: -2.89%
42 | CSCC[C@H](NC(=O)N1CCn2c1nc1ccccc12)C(=O)NCc1ccc(F)cc1 | inactive: -2.6%
43 | COc1cc(C(=O)OCCn2c(=O)c3c(ncn3CCN(C)C)n(C)c2=O)cc(OC)c1OC | inactive: 3.25%
44 | O=C(Cn1c(CC(=O)N2CCCC2)nc2ccccc21)NCc1ccccc1 | inactive: -0.46%
45 | Cc1ccc2c(c1)C1CN(C)CCC1N2C(=O)/C=C/c1ccc2c(c1)OCO2 (stereo not drawn) | inactive: 3.43%
46 | COCCOC(=O)C1=C(C)N=C2SCCC(=O)N2C1/C=C/c1ccccc1 (stereo not drawn) | inactive: -4.05%
47 | O=C(Nc1cccc(F)c1)N1CCC(n2c(=O)[nH]c3ccccc32)CC1 | inactive: 3.07%
48 | COc1ccc(N2C(=O)CC(N3CCC(n4c(=O)[nH]c5ccccc54)CC3)C2=O)cc1 (stereo not drawn) | inactive: 4.19%
49 | CC(C)C[C@H](NC(=O)N1CCn2c1nc1ccccc12)C(=O)N[C@@H](Cc1ccccc1)C(=O)O | inactive: 0.27%
50 | CCn1c(N)[n+](CC(=O)Nc2ccc(SC(F)F)cc2)c2ccccc21 | inactive: 4.26%
51 | O=C(OC1CN2CCC1CC2)c1cccc(Cl)c1 (stereo not drawn) | inactive: 3.61%
52 | O=C(Cn1cnc2c(OCc3ccccc3)ncnc21)NCc1nc2ccccc2[nH]1 | inactive: -0.96%
53 | CSCC[C@H](NC(=O)N1CCn2c1nc1ccccc12)C(=O)NCC1CCCO1 (stereo partly drawn) | inactive: 1.64%
54 | CC(O)c1nc2ccccc2n1CC(=O)Nc1ccc2c(c1)OCCO2 (stereo not drawn) | inactive: 2.79%
55 | O=C(Cn1cnc2ccccc21)N/N=C/c1ccccn1 | inactive: -0.16%
56 | CSc1ccccc1NC(=O)Cn1c(-c2cscn2)nc2ccccc21 | inactive: 0.09%
57 | Cc1ccc(/C=N/NC(=O)Cn2cnc3c2c(=O)n(C)c(=O)n3C)s1 | inactive: -4.09%
58 | CC(C)(C)NC(=O)Cn1c(Cl)nc2ccccc21 | inactive: 8.11%
